Tests used:
[1] = test system: dulcitol accumulation in the lens; test: % lowering dulcitol accumulation in vivo, lens (L), galactosemic rats; set-up: species or system rat (Sprague-Dawley); details: 4 days
Text: (§1) Such experiments are exemplified hereinbelow after the listing of the following general comments pertaining to these experiments:
(§2) (a) Four or more groups of six male rates, 50-70 g, Sprague-Dawley strain, were used. The first group, the control group, was fed a mixture of laboratory chow (rodent laboratory chow, Purina) and glucose at 20% (w/w %) concentration. The untreated galactosemic group was fed a similar diet in which galactose is substituted for glucose. The third group was fed a diet prepared by mixing a given amount of the test compound with the galactose containing diet. The concentration of galactose in the diet of the treated groups was the same as that for the untreated galactosemic group.
(b) After four days, the animals were killed by decapitation. The eyeballs were removed and punctured with a razor blade; the freed lenses were rolled gently on filter paper and weighed. The sciatic nerves were dissected as completely as possible and weighed. Both tissues were frozen and can be kept up to two weeks before being analyzed for dulcitol.
(§3) Only two minor reagent changes were made: (a) The rinsing mixture was an aqueous 5% (w/v) trichloroacetic acid solution and (b) the stock solution was prepared by dissolving 25 mg of dulcitol in 100 ml of an aqueous trichloroacetic acid solution. [N.B.: For each experiment the average value found in the tissue from rats fed the glucose diet was subtracted from the individual values found in the corresponding rat tissue to obtain the amount of polyol accumulated.]
(§4) The figures under L, N and D represent the percentage decrease of dulcitol accumulation in the tissues of the lens, sciatic nerve and diaphragm, respectively, for treated rats as compares to untreated rats.

[2] = test system: dulcitol accumulation in the diaphragm; test: % lowering dulcitol accumulation in vivo, diaphragm (D), galactosemic rats; set-up: species or system rat (Sprague-Dawley); details: 4 mg/kg/day in galactose diet, 4 days
Text: as §1, §2, §3, §4

| SMILES | % lowering dulcitol accumulation in vivo, L ([1]; 4 mg/kg/day in galactose diet) [%] | % lowering dulcitol accumulation in vivo, L ([1]; 11 mg/kg/day in galactose diet) [%] | % lowering dulcitol accumulation in vivo, D [2] [%] | % lowering dulcitol accumulation in vivo, L ([1]; 29 mg/kg/day in galactose diet) [%] |
| --- | --- | --- | --- | --- |
| COc1ccc2c(C(=S)N(C)CC(=O)O)cccc2c1C(F)(F)F [Compound 7, N--[[5-(Trifluoromethyl)-6-methoxy-1-naphthalenyl]thioxomethyl]-N--methylglycine, reference compound] | 0 | 14 | 80 |  |
| COc1ccc2c(C(=O)N(C)CC(=O)O)cccc2c1C(F)(F)C(F)(F)F [Compound 2, N-[[6-Methoxy-5-(pentafluoroethyl)-1-naphthalenyl]carbonyl]-N-methylglycine] |  |  |  | 0 |
